# Binding of CDR-mutated scFvs to a peptide of the spike HR2 region

Target peptide (SARS-CoV-2 spike, HR2 region): PDVDLGDISGINAS

Each scFv is VH, a (GGGGS)3 linker, VL, as in the parent Ab-95, and differs from it in the CDRs of the light chain only.
VH: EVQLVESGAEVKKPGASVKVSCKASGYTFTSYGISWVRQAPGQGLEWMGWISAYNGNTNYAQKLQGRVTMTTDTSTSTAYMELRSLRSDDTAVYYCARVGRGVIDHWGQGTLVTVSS
VL: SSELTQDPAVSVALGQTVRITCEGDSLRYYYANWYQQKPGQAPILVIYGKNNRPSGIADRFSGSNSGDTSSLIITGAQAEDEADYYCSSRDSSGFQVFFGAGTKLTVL

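Phage display of a naive human antibody library on the peptide gave the parent. The library (AAYL52) carries one to three amino acid substitutions per variant, with no insertions or deletions. AlphaSeq pools MATa yeast showing the antibodies with MATalpha yeast showing the peptide. Binding brings cells together so that they mate, and sequencing counts the barcode pairs among the diploids. Read counts were normalised to the haploid input and turned into Kd by a linear fit to BCL2-family pairs of known affinity, for each replicate. There are three technical replicates.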

The parent's light chain CDRs are EGDSLRYYYAN, GKNNRPS, SSRDSSGFQVF; each variant's own CDRs replace them letter for letter.
Numbers give log10(Kd / nM), so 0 is 1 nM and 3 is 1 µM. Smaller is tighter.
"ND" means that the variant was in the library but no mating with the target was seen in that replicate; the authors take this as a sign of poor binding, and no number exists.
Three control strains display no target. For library AAYL52, 28% of the pairings with them gave a signal, with a median of 3.91 and one signal in twenty below 2.90, so weak values seen in few replicates may be background. The control count says in how many pairings with the empty strains this scFv gave a signal.
Parent in this assay: reference entry 2.31, copy in this library 2.25.

The variant EGDSLTYYFAN / GMNNRPS / SSRDSSGFQVF gave 3.88, 2.89, 3.62 (controls 2 of 9).
The variant EGDVLRYYYAN / GKSNRPS / SSFDSSGFQVF gave ND, ND, ND (controls 2 of 9).
The variant KGDSLRYYYWN / RKNNRPS / SSRDSSGFQVF gave ND, 5.49, 4.42 (controls 2 of 9).
The variant EGDSLRYYYAN / GKINIPS / SSRDSSGFQVK gave ND, ND, ND (controls 1 of 9).
The variant CGDSDRAYYAN / GKNNRPS / SSRDSSGFQVF gave ND, 3.71, 4.35 (controls 1 of 9).
The variant EGDSLRYYYAN / GKNNRSS / SSRQSSGFQVF gave 2.86, 2.63, 2.61 (controls 4 of 9).
The variant EGDSLRYYSNN / GKNNRPS / SSGDSSGFQVF gave 3.24, 3.45, 2.83 (controls 2 of 9).
The variant EGDSLQYYYAN / GSNNRPS / SSRDSSGFQVG gave 4.25, 3.58, 3.69 (controls 5 of 9).
The variant EGDSLRYYYAC / GKNNRPS / SSRDSSQFQNF gave ND, ND, ND (controls 0 of 9).
The variant EGDSHRRYYAN / GKNNRPS / SSRDSSGFQVR gave ND, ND, ND (controls 2 of 9).
The variant EGDSQNYYYAN / GKNNRMS / SSRDSSGFQVF gave ND, ND, ND (controls 1 of 9).
The variant EGDSLSYYYAN / GKNNRPS / SSRDSSGFQRM gave ND, 3.53, ND (controls 1 of 9).
The variant EGDSLRYYLAN / WKNNRPS / SSRDSSGGQVF gave ND, ND, ND (controls 3 of 9).
The variant EGGSLRYYYAN / QKNNRLS / SSRDSSGFQVF gave 3.05, ND, 3.02 (controls 3 of 9).
The variant EGDSLRYGYAK / GKNNRPS / SSRKSSGFQVF gave 3.39, 2.69, 2.89 (controls 4 of 9).
The variant EGDSLRYYYAN / GPNNRPS / SHRDSSGFQVF gave 3.24, ND, ND (controls 3 of 9).
The variant EGDSLRYYYAN / GLNNRPS / SSRDSSGTQAF gave 1.90, 2.68, 1.95 (controls 2 of 9).
The variant EGDSLRYYYAN / GKNNRPS / SGIDSSGGQVF gave 2.90, 2.47, 2.38 (controls 2 of 9).
The variant ENDSLRYYYAN / GKNNRPS / SNRDSSGFQVF gave 2.22, 1.96, 3.03 (controls 4 of 9).
The variant EGDSLRYYYAN / GKNNRPF / SSRDVSLFQVF gave ND, ND, ND (controls 2 of 9).
The variant EGKSLRYYYAN / GKNNRPS / SSRDSSGMQVP gave 2.50, 3.58, 2.19 (controls 2 of 9).
The variant EGDSCRYYYAN / GKNNRPV / SSRDQSGFQVF gave ND, ND, ND (controls 1 of 9).
The variant EGDSLRYYYAN / GKNNGPS / ISRDSSGYQVF gave ND, ND, ND (controls 1 of 9).
The variant EGDSLRYYYAG / GKNSRPT / SSRDSSGFQVF gave 2.44, 2.23, 2.08 (controls 2 of 9).
The variant EGDSLRYYALN / GKNNRPS / SSRDSSGFQPF gave 3.25, 3.01, ND (controls 1 of 9).
The variant EGDSRRYYYAN / GKNNRPS / SSRFSSGFQVF gave ND, ND, ND (controls 1 of 9).
The variant EGDSLRYYYQN / GKANRPS / SMRDSSGFQVF gave 4.25, ND, 4.35 (controls 4 of 9).
The variant EGDSLRYYYAN / GNNFMPS / SSRDSSGFQVF gave 3.13, 2.98, ND (controls 1 of 9).
The variant EGDSLWYYYAN / GKNNRYS / KSRDSSGFQVF gave ND, 4.18, ND (controls 3 of 9).
The variant EGDSLRYYHAN / GKNNRPS / SNRDSSCFQVF gave 2.36, 1.77, 2.16 (controls 2 of 9).
The variant EGDSLRYYYAN / GKQNRPS / SSRDSSGFGVA gave 4.14, 4.10, ND (controls 4 of 9).
The variant EGDSLRYYTAN / GKNNRPS / SSRDDSGFYVF gave 2.92, 2.50, 3.12 (controls 0 of 9).
The variant EGDSLRYYWFN / PKNNRPS / SSRDSSGFQVF gave 3.79, 4.59, 3.61 (controls 3 of 9).
The variant EGDSFRYYYAV / GKNNRPS / SSRDSSMFQVF gave 3.26, 3.49, ND (controls 3 of 9).
The variant EGDSLRVYYAN / GKMQRPS / SSRDSSGFQVF gave 2.04, 1.86, 1.42 (controls 6 of 9).
The variant EGDQGRYYYAN / GKNNRPS / SSRDSSGFQVF gave 4.09, 3.55, ND (controls 0 of 9).
The variant EGDSLRYYYAN / GKNNRPS / SSDDSLPFQVF gave 3.02, 2.69, 2.28 (controls 1 of 9).
The variant EGDSCRYYYAN / GKNNRQS / SSRDPSGFQVF gave 4.50, 5.25, 2.92 (controls 1 of 9).
The variant EGDSLRYHYAI / GKNNRNS / SSRDSSGFQVF gave 4.16, 3.97, 3.81 (controls 0 of 9).
The variant EGDSLRYYYAN / GKNNRPS / SSSDSCGFQVF gave 2.42, 2.07, 1.89 (controls 2 of 9).
The variant EGDSLRYYYIN / GKNNRPC / KSRDSSGFQVF gave ND, ND, ND (controls 3 of 9).
The variant EGDSLRYYKAN / GKNNRPS / SSRDSSGFQVF gave 2.67, 2.39, 2.28 (controls 0 of 9).
The variant EGDSLRYYYAE / GKNLRPS / SSHDSSGFQVF gave ND, ND, ND (controls 2 of 9).
The variant EGDSLRYYYAN / GKNCQPS / SSRFSSGFQVF gave 4.26, 5.88, ND (controls 1 of 9).
The variant EGDSLRYYMKN / GKNNRYS / SSRDSSGFQVF gave 4.63, ND, ND (controls 4 of 9).
The variant EGDSLRYYYAN / GKNNRPS / SSGDSSGPQVF gave 3.23, 3.41, 3.04 (controls 3 of 9).

The last 3 entries again:

{"CDR-L1": "EGDSLRYYYAN", "CDR-L2": "GKNCQPS", "CDR-L3": "SSRFSSGFQVF", "log10 Kd (nM) by replicate": "4.26, 5.88, ND", "empty controls": "1 of 9"}
{"CDR-L1": "EGDSLRYYMKN", "CDR-L2": "GKNNRYS", "CDR-L3": "SSRDSSGFQVF", "log10 Kd (nM) by replicate": "4.63, ND, ND", "empty controls": "4 of 9"}
{"CDR-L1": "EGDSLRYYYAN", "CDR-L2": "GKNNRPS", "CDR-L3": "SSGDSSGPQVF", "log10 Kd (nM) by replicate": "3.23, 3.41, 3.04", "empty controls": "3 of 9"}

From the AlphaSeq antibody data of Engelhart et al. 2022 (doi:10.1038/s41597-022-01779-4), copy in the FLAb collection.